Our source for the EC50 values is ChEMBL document CHEMBL1129799, “Homology modeling of metabotropic glutamate receptors. (mGluRs) structural motifs affecting binding modes and pharmacological profile of mGluR1 agonists and competitive antagonists” (J Med Chem, 1996).

By UniProt entry, the sequences of proteins in these tests, tags left out. Where a name states a change or a piece, a line headed by the entry shows the natural chain unless it says otherwise.
UniProt Q13255: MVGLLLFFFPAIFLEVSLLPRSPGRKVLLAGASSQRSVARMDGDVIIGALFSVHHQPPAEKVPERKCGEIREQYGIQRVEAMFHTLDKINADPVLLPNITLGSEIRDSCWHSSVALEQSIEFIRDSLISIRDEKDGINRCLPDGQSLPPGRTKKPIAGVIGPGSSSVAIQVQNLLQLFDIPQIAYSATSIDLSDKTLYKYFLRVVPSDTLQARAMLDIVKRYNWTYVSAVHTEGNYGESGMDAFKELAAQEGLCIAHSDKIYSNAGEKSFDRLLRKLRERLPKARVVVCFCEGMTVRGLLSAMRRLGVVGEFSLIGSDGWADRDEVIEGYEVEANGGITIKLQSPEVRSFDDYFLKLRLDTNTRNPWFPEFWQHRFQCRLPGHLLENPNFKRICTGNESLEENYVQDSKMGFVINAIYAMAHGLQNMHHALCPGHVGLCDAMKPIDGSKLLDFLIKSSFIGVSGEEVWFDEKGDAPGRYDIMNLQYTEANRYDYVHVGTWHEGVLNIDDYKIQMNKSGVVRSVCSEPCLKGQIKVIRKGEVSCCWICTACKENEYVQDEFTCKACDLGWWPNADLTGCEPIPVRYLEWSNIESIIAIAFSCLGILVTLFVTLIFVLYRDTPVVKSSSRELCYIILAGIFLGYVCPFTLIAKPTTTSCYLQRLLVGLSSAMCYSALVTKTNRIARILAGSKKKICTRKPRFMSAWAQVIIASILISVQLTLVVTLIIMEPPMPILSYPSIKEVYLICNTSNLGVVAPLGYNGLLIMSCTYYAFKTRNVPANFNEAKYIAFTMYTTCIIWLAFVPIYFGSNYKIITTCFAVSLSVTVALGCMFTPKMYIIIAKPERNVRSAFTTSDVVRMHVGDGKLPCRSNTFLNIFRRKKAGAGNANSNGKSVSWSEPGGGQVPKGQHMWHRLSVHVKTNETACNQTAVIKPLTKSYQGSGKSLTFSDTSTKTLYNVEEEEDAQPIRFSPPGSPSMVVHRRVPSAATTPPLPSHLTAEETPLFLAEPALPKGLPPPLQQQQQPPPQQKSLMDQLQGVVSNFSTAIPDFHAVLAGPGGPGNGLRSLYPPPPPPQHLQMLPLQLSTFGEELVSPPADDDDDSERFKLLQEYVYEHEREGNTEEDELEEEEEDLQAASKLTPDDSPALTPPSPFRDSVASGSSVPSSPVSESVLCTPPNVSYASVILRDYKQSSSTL

In the assay the target is Metabotropic glutamate receptor 1 (Homo sapiens, UniProt Q13255). Nature of the assay: Effective concentration for half maximal stimulation of PI hydrolysis (mGluR1a).

The term EC50 denotes the midpoint of the concentration-response curve. Read a low EC50 as higher potency in that assay.

With `N[C@@]1(C(=O)O)CC[C@@H](C(=O)O)C1`, the EC50 is 22 µM.
